# From PubChem BioAssay
# In the library only some 2.2% were active in any assay of this set; here they are far more common.
# Nrf2 activator: Nrf2 pathway activation | AREc32 ARE-luciferase reporter (MCF7-derived line), luminescence, 24 h | Potency, µM (doses to about 46.1 µM), for inactives: at the top dose activation, usual class: activators | actives 0.31% (n = 410,000); also: potency is read from the fitted curve at half-maximal effect; % of control where 0% means no effect; nearly all actives have a fitted effect of over 65% in size
#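 Steps: seed AREc32_Fluc cells (1000/well, 5% FBS OPTI-MEM); incubate overnight at 37 deg C; add 23 nL compound; incubate 24 hr; add Steady-Glo; hold 30 min RT; read luminescence.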
# miR-21 reporter: miR-21 reporter, rising signal | HeLa miR-21 FLuc reporter, luciferase, 48 h | Potency, µM (doses to about 38.3 µM), inactives show at the top dose reporter change, positive = more light | 340,000 tested, under 10 active | AID 2288; active = well fitted rising curve with a large enough effect; inconclusive = small, poorly fitted or top-dose-only effect; inactive = no such curve, though single readings can be large or run the other way;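 note: % of control where 0% means no effect; miR-21 action dims this reporter so a rising signal means less miR-21 action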
#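 HeLa miR-21-FLuc reporter line, endogenous miR-21; 2000 cells/well in DMEM/10% FBS; compound titration up to ~40uM final, 48 h, 37 degree Celsius; luciferase detection reagent, 15 min lysis, CCD luminescence.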
# A549 viability: kills or reduces viability of A549 cells in Nrf2 counter-screen; A549 ARE-Fluc cells, CellTiter-Fluor viability, 18-24 h; Potency, µM (highest dose often 46 µM), inactives show at the top dose activity change, negative = cytotoxicity, usual class: inhibitors; actives 0.16% (n = 390,000); also: potency is read from the fitted curve at half-maximal effect; % is scaled to controls: 0 for no effect and ±100 for the full control effect
#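 A549 ARE-Fluc cells in 5% FBS OPTI-MEM, 5000 cells/well, rested 2 h then exposed to compounds in concentration-response for 18-24 h at 37 °C. Viability by CellTiter-Fluor fluorescence (Ex 405/Em 525) after 30 min; luciferase luminescence (BugLite, 15 min, RT) read afterwards.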
# Nrf2 block: Nrf2 pathway inhibition | A549 ARE-Fluc reporter, luciferase luminescence, 18-24 h | Potency, µM (titrated, usually from 46 µM), without a hit: top-dose activity change, negative = inhibition, most hits filed as inhibitors | actives 2.1% (n = 360,000) | AID 504444; also: potency is read from the fitted curve at half-maximal effect; % is scaled to controls: 0 for no effect and ±100 for the full control effect; nearly all actives have a fitted effect of over 60% in size
#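 Quantitative HTS in A549 cells stably bearing an antioxidant response element-firefly luciferase construct. Inhibition of Nrf2-driven transcription was scored by luminescence after 18-24 h of compound exposure at 37 °C.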
# B2AR arrestin: recruits beta-arrestin to the human beta2-adrenergic receptor. P07550. actives 0.02% (n = 330,000). beta-arrestin recruitment to beta2AR, cell-based reporter. Potency, µM (highest dose often 46.1 µM), without a hit: at the top dose activation, most hits filed as activators;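 also: potency is read from the fitted curve at half-maximal effect; 0% = DMSO controls and full agonism = EC100 isoproterenol or metaproterenol; nearly all actives have a fitted effect of over 65% in size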
# * = called active by the depositor; ? = inconclusive; . = not tested or not shown; [ ] = dose if it differs, or a comment. Calls follow the shape of the dose curve; as a rule, active = well fitted curve in the direction sought with a large enough effect; inconclusive = small, poorly fitted or top-dose-only effect, or another doubt; inactive = no such curve, though single readings can be large; an effect the other way counts as inactive or inconclusive.
(1) CCCN1CNc2c(c(=O)[nH]c(=S)n2CCc2ccc(OCC)c(OCC)c2)C1
(2) CCc1ccc(S(=O)(=O)NCc2nc3cccnc3n2Cc2ccccc2Cl)cc1
(3) CCOC(=O)C1CCCN(C(=O)c2ccc3c(c2)sc2nc(-c4ccc(C)cc4C)cn23)C1 (centres undefined)
(4) CCOC(=O)C1CCCN(C(=O)c2ccc3c(c2)sc2nc(-c4cccc(OC)c4)cn23)C1 (centres undefined)
(5) CCCC[C@]12Cc3cc(OC)c(OC)cc3C(O1)C1=C(O2)C(=O)c2ccccc2C1=O
(6) CN1C(=O)/C(=C/c2cccc(Cl)c2)Sc2ccc(C(=O)N3CCOCC3)cc21
compound no.	1	2	3	4	5	6
Nrf2 activator	.	1%	1%	4%	.	3%
miR-21 reporter	.	1%	-7%	-8%	-6%[7.66 µM]	6%
A549 viability	-1%	-8%	-2%	-7%	.	-30%
Nrf2 block	1%	.	6%	16µM*	.	15µM*
B2AR arrestin	.	.	.	.	0%[9.22 µM]	-1%

# Quoted at random: three records from the list
(2) CCc1ccc(S(=O)(=O)NCc2nc3cccnc3n2Cc2ccccc2Cl)cc1
(3) CCOC(=O)C1CCCN(C(=O)c2ccc3c(c2)sc2nc(-c4ccc(C)cc4C)cn23)C1 (centres undefined)
(6) CN1C(=O)/C(=C/c2cccc(Cl)c2)Sc2ccc(C(=O)N3CCOCC3)cc21
compound no.	2	3	6
Nrf2 activator	1%	1%	3%
miR-21 reporter	1%	-7%	6%
A549 viability	-8%	-2%	-30%
Nrf2 block	.	6%	15µM*
B2AR arrestin	.	.	-1%

# Remaining list, next part:
(7) CCOc1ccc(/C=C2/Sc3ccc(C(=O)N4CCOCC4)cc3N(C)C2=O)cc1OC
(8) CCOC(=O)C1CCCN(C(=O)c2ccc3c(c2)N(C)C(=O)/C(=C/c2ccccc2Cl)S3)C1 (centres undefined)
(9) O=C(Nc1nc2c(F)cccc2s1)c1ccc([N+](=O)[O-])o1
(10) O=C(Nc1nc2ccc(F)cc2s1)c1ccc([N+](=O)[O-])o1
(11) O=C(Nc1nc2c(Cl)cccc2s1)c1ccc([N+](=O)[O-])o1
(12) O=C(Nc1nc2ccc(F)cc2s1)c1cccs1
compound no.	7	8	9	10	11	12
Nrf2 activator	10%	2%	10µM*	3.2µM*	5µM*	?
miR-21 reporter	13%	11%	5%	.	11%	-12%
A549 viability	-14%	-14%	5%	.	-10%	1%
Nrf2 block	?	23µM*	16%	.	6%	?
B2AR arrestin	0%	0%	-2%	.	0%	-1%

(13) CCC(=O)Nc1ccc(NC(=O)CSc2nc3cc4c(cc3cc2C)CCC4)cc1
(14) Cc1ccccc1NC(=O)CSc1nc2cc3c(cc2cc1C)CCC3
(15) COc1ccc(C2=Nn3c(nnc3-c3ccc(OC)cc3OC)SC2)cc1
(16) COc1ccc(Cl)cc1C=CC=Nc1ccccc1O
(17) C[C@H](CO)N1C[C@H](C)[C@@H](CN(C)S(=O)(=O)c2ccc(F)cc2)Oc2ccc(NS(=O)(=O)c3ccc(F)cc3)cc2C1=O
(18) C[C@H](CO)N1C[C@H](C)[C@@H](CN(C)S(=O)(=O)c2ccc(F)cc2)Oc2c(NC(=O)Nc3ccc(C(F)(F)F)cc3)cccc2C1=O
compound no.	13	14	15	16	17	18
Nrf2 activator	-1%	0%	.	10µM*	1%	0%
miR-21 reporter	12%	11%	.	.	.	.
A549 viability	?	?	-6%	-7%	1%	-15%
Nrf2 block	23µM*	-22%	?	-7%	0%	18µM*
B2AR arrestin	0%	0%	.	.	-3%	-1%

(19) COc1ccc(S(=O)(=O)Nc2cccc3c2O[C@H](CN(C)Cc2ccc(Oc4ccccc4)cc2)[C@@H](C)CN([C@H](C)CO)C3=O)cc1
(20) C[C@@H]1CN([C@H](C)CO)C(=O)c2cc(NS(=O)(=O)c3ccc(F)cc3)ccc2O[C@@H]1CN(C)Cc1ccc(Cl)c(Cl)c1
(21) C[C@H](CO)N1C[C@H](C)[C@@H](CN(C)Cc2ccc(Cl)c(Cl)c2)Oc2c(NC(=O)C3CC3)cccc2C1=O
(22) C[C@H](CO)N1C[C@H](C)[C@@H](CN(C)Cc2ccc(Cl)c(Cl)c2)Oc2c(NC(=O)CCC(F)(F)F)cccc2C1=O
(23) Oc1ccc(Cl)cc1C1C=C(c2ccc3c(c2)OCO3)NC(c2cc(Br)ccc2F)N1 (centres undefined)
(24) C[C@H](CO)N1C[C@H](C)[C@@H](CN(C)CC2CCCCC2)Oc2c(NC(=O)Cc3ccccc3)cccc2C1=O
(25) O=S(=O)(c1ccccc1Cl)N1CCCC1c1nc(-c2ccccc2Cl)no1 (centres undefined)
(26) O=S(=O)(c1ccc(Cl)cc1)N1CCCC1c1nc(-c2ccc(Cl)cc2)no1 (centres undefined)
compound no.	19	20	21	22	23	24	25	26
Nrf2 activator	0%	-3%	-1%	-2%	.	-2%	0%	0%
miR-21 reporter	.	.	.	.	.	.	13%	-7%
A549 viability	-13%	15µM*	?	-14%	1%	-16%	-16%	-3%
Nrf2 block	16µM*	18µM*	?	18µM*	-20%	23µM*	16µM*	-24%
B2AR arrestin	0%	0%	0%	0%	.	0%	-1%	0%
